Consider two substances from patent US9867795B2, “Nitrated lipids and methods of making and using thereof” (The UAB Research Foundation, priority 2004, dated 2018).

The chains behind the UniProt entries cited, without tags or fusion partners. Residues count along the entry.
UniProt P37231, 29-505: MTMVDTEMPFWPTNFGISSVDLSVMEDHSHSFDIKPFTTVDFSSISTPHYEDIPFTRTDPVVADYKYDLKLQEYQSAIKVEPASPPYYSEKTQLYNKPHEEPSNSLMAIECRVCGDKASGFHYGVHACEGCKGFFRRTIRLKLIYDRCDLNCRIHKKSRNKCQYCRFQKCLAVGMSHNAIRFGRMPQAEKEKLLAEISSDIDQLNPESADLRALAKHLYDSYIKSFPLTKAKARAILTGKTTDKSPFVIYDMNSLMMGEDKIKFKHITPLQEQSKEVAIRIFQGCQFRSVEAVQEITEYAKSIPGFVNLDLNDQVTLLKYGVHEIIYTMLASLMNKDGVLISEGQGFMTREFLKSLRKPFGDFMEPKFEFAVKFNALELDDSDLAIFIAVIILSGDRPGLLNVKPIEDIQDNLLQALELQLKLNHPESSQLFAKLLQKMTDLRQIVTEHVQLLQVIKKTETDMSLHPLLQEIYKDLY
UniProt P37231, 238-503 limits assumed, species assumed: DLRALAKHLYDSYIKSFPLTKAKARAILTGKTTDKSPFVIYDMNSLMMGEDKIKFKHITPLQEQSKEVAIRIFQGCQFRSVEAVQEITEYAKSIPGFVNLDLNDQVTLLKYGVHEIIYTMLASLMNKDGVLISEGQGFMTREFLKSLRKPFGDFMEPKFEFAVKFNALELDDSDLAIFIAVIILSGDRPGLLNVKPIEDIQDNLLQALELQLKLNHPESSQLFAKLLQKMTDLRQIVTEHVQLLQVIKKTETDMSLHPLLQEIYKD
UniProt P10275, 669-900 limits assumed, species assumed: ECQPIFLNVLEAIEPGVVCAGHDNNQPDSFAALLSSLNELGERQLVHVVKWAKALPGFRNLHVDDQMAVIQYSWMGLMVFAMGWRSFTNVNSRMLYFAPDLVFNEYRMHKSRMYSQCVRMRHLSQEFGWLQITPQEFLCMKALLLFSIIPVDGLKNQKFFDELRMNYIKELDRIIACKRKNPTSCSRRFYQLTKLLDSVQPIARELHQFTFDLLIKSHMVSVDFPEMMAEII

As usually defined, the Ki is a measure of affinity in units of concentration, obtained from inhibition or displacement.

In one series the target is T1, hPPARα (Homo sapiens, UniProt Q07869).
T1 construct: For assessing full-length PPAR receptors, CV-1 cells were transiently co-transfected; expressed in transfected cells; host or cells: CV-1 cells
T1 sequence (Q07869 1-468): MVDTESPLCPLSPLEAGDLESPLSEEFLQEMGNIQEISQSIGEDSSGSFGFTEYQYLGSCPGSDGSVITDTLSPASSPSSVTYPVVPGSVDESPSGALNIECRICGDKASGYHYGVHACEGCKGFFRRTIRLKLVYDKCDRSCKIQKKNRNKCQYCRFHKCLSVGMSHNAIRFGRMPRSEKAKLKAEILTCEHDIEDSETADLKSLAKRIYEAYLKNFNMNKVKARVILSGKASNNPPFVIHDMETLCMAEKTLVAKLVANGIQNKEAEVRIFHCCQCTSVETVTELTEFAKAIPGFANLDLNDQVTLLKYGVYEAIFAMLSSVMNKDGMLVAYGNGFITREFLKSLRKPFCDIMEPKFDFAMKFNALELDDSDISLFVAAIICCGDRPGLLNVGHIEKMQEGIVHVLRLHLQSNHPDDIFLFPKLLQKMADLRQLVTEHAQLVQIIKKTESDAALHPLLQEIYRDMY
The experiment in a line: CV-1 PPRE×3 TK-Luciferase transient transfection assay. Type of series: cell-based. To be noted: PPRE reporter, CV-1 cells, P≦0.05. The method, then: Cell Transient Transfection Assay. CV-1 cells from ATCC (Manassas, Va.) were grown to ˜85% confluence in DMEM/F12 supplemented with 10% FBS, 1% penicillin-streptomycin. Then, cells were transiently co-transfected with a plasmid containing the luciferase gene under regulation by four Gal4 DNA binding elements (UASG×4 TK-Luciferase, a gift from Dr. Ronald M. Evans), in concert with plasmids containing the ligand binding domain for the different nuclear receptors fused to the Gal4 DNA binding domain. For assessing full-length PPAR receptors, CV-1 cells were transiently co-transfected with a plasmid containing the luciferase gene under the control of three tandem PPAR response elements (PPRE) (PPRE×3 TK-Luciferase) and hPPARγ, hPPARα or hPPARδ expression plasmids, respectively. In all cases, fluorescence protein (GFP) expression plasmid was co-transfected as the control for the transfection efficiency. Twenty-four hours after the transfection, cells were cultured for another 24 hours in Optium-MEM (Invitrogen, Carlsbad, Calif.). Then, cells were treated with different compounds as indicated in figures for 24 hours in Optium-MEM. […]
PPAR transient transfection assay. […] In all cases, fluorescence protein (GFP) expression plasmid was co-transfected as the control for transfection efficiency. […]

The target of another series is T2, hPPARγ (Homo sapiens, UniProt P37231).
T2 construct: For assessing full-length PPAR receptors, CV-1 cells were transiently co-transfected; expressed in transfected cells; host or cells: CV-1 cells
The description is as above. Type of series: cell-based. The following applies: for relative activation of PPARγ, PPARα and PPARδ: dose-dependent activation. The source says:
Cell Transient Transfection Assay. […] Then, cells were transiently co-transfected with a plasmid containing the luciferase gene under regulation by four Gal4 DNA binding elements (UASG×4 TK-Luciferase, a gift from Dr. Ronald M. Evans), in concert with plasmids containing the ligand binding domain for the different nuclear receptors fused to the Gal4 DNA binding domain. For assessing full-length PPAR receptors, CV-1 cells were transiently co-transfected with a plasmid containing the luciferase gene under the control of three tandem PPAR response elements (PPRE) (PPRE×3 TK-Luciferase) and hPPARγ, hPPARα or hPPARδ expression plasmids, respectively. In all cases, fluorescence protein (GFP) expression plasmid was co-transfected as the control for the transfection efficiency. Twenty-four hours after the transfection, cells were cultured for another 24 hours in Optium-MEM (Invitrogen, Carlsbad, Calif.). Then, cells were treated with different compounds as indicated in figures for 24 hours in Optium-MEM. Reporter luciferase assay kits from Promega (Madison, Wis.) were used to measure the luciferase activity according to the manufacturer's instructions with a luminometer (Victor II, Perkin-Elmer). Luciferase activity was normalized by GFP units. Each condition was performed at least in triplicates in each experiment.
PPAR transient transfection assay. […] Twelve hours before transfection, the media was removed and antibiotic-free media was applied. Cells were transiently co-transfected with a plasmid containing the luciferase gene under the control of three tandem PPAR response elements (PPRE) (PPRE×3 TK-Luciferase) and PPARγ, PPARα or PPARδ expression plasmids, respectively. In all cases, fluorescence protein (GFP) expression plasmid was co-transfected as the control for transfection efficiency. Twenty-four hours after transfection, cells the returned to OptiMEM (Invitrogen, Carlsbad, Calif.) for 24 hr and then treated as indicated for another 24 hr. Reporter luciferase assay kits from Promega (Madison, Wis.) were used to measure the luciferase activity according to the manufacturer's instructions with a luminometer (Victor II, Perkin-Elmer). Luciferase activity was normalized by GFP units. Each condition was performed in triplicate in each experiment (n>3).

The next series concerns the target Human PPARγ1 (GST-PPARγ) (Homo sapiens, UniProt P37231). The experiment in a line: PPARγ competition binding assay ([^3H]Rosiglitazone displacement). To be noted: read-out: binding affinity (Ki), displacement of [^3H]Rosiglitazone from PPARγ; calculated / estimated. The method, then: PPARγ Competition Binding Assay. Human PPARγ1 cDNA was inserted into pGEX from Amersham Biosciences Corp (Piscataway, N.J.) containing the gene encoding glutathione S-transferase (GST). GST-PPARγ protein induction and receptor binding was assessed as previously described (17).

The target of a further series is T3, androgen receptor (AR) (Homo sapiens, UniProt P10275).
T3 construct: expressed in transfected cells; host or cells: CV-1 cells
Put plainly: CV-1 Gal4 ligand binding domain luciferase reporter assay. The format is cell-based. To be noted: LNO2 1 μM; CV-1 cells. The method, then: (§1) Cell Transient Transfection Assay. CV-1 cells from ATCC (Manassas, Va.) were grown to ˜85% confluence in DMEM/F12 supplemented with 10% FBS, 1% penicillin-streptomycin. Then, cells were transiently co-transfected with a plasmid containing the luciferase gene under regulation by four Gal4 DNA binding elements (UASG×4 TK-Luciferase, a gift from Dr. Ronald M. Evans), in concert with plasmids containing the ligand binding domain for the different nuclear receptors fused to the Gal4 DNA binding domain. For assessing full-length PPAR receptors, CV-1 cells were transiently co-transfected with a plasmid containing the luciferase gene under the control of three tandem PPAR response elements (PPRE) (PPRE×3 TK-Luciferase) and hPPARγ, hPPARα or hPPARδ expression plasmids, respectively. In all cases, fluorescence protein (GFP) expression plasmid was co-transfected as the control for the transfection efficiency. Twenty-four hours after the transfection, cells were cultured for another 24 hours in Optium-MEM (Invitrogen, Carlsbad, Calif.). Then, cells were treated with different compounds as indicated in figures for 24 hours in Optium-MEM. Reporter luciferase assay kits from Promega (Madison, Wis.) were used to measure the luciferase activity according to the manufacturer's instructions with a luminometer (Victor II, Perkin-Elmer). Luciferase activity was normalized by GFP units. […]
Background: In a reporter assay the amount or activity of a reporter protein is the signal.

For series [1], the target named is T4, PPARγ ligand binding domain (Homo sapiens, UniProt P37231).
T4 construct: expressed in transfected cells; host or cells: CV-1 cells
The description is as above. Type of series: cell-based. The following applies: LNO2 1 μM; CV-1 cells. The method, then:
as §1

Series [2] is described as follows: Hydrophobic stabilization and micellar partition of LNO2. The following applies: plot of 1/v vs. α, FIG. 25B. Type of series: physicochemical. The text has this: Hydrophobic stabilization of LNO2—The observation that LNO2 is stable in organic solvents such as n-octanol, undergoing decay only after solvation in aqueous solutions, led us to analyze rates of •NO formation from LNO2 in the presence of non-ionic detergents. The formation of •NO was followed by EPR (measuring cPTI formation) in the presence of different concentrations of octyl-β-glucopyranoside (OG) and octyl-thio-β-glucopyranoside (OTG). The rate of •NO release was constant and not influenced by these detergents until the critical micellar concentration (CMC) for each was achieved, after which •NO formation was inhibited as the volume of the hydrophobic environment increased (FIG. 24A). Similar results were obtained when measuring •NO formation via conversion of oxymyoglobin to metmyoglobin. Apparent •NO release rates remained constant until OG concentration reached ˜2.8 mg/ml (CMC=2.77 mg/ml (11)). […] To further confirm that LNO2 was protected in lipophilic environments, LNO2 decomposition was followed by UV absorbance at 268 nm and 320 nm (FIGS. 24 C-D). […] The micellar stabilization of LNO2 was also documented in OTG-containing buffers by MS-based quantification of LNO2 after Bligh and Dyer extraction (FIG. 25A). […]

Where “and” joins values, the source holds several entries; their conditions need not be identical. Equal entries are not always repeated. Entries after “also recorded” stand apart in the source; their conditions may differ.

As to “9- and 10-nitro-9-cis-octadecenoic acid [OA-NO2]”, the “concentration at which PPARα activation is significantly different from vehicle” value on hPPARα is approximately 300 nM. The “relative activation of PPARγ, PPARα and PPARδ” value at hPPARγ (PPRE reporter, CV-1 cells) was “PPARγ showing the greatest response; also recorded: PPARγ>PPARδ>PPARα”.

For “10-nitro-9,12-octadecadienoic acid and 12-nitro-9,12-octadecadienoic acid [LNO2]”, the “activation of PPARγ reporter gene expression compared with vehicle control” value at hPPARγ (1 and 3 μM, CV-1 cells, PPRE reporter) was “rivaled that induced by Ciglitazone and Rosiglitazone”. The “concentration inducing the same degree of PPARγ reporter gene expression” value at hPPARγ (CV-1 cells, PPRE reporter, FIG. 17B) is 3 µM. Also, the “concentration at which PPARγ activation is significantly different from vehicle” value at hPPARγ (PPRE reporter, CV-1 cells, P≦0.05) is given as 100 nM. The “enhancement of LNO2-mediated PPARγ activation by co-addition of 9-cis-retinoic acid” value at hPPARγ (co-addition of the RXRα agonist 9-cis-retinoic acid) is approximately 180%. In addition, at hPPARγ (PPRE reporter, CV-1 cells), the “relative activation of PPARγ, PPARα and PPARδ” value was “PPARγ showing the greatest response”. On Human PPARγ1 (GST-PPARγ), the Ki is ~133 nM and 133 nM. Also, at androgen receptor (AR), the AR receptor activation result is reported as “no impact”. The “activation of PPARγ (Gal4 LBD reporter)” value in series [1] is 620%. For the same substance, in series [2], the “partition constant K (hydrophobic/aqueous concentration ratio), OG micelles” value is 1580 and the “partition constant K (hydrophobic/aqueous concentration ratio), OTG micelles” value is 1320.
